In patent publication US6517846B2, “Cosmetic composition” (Kyowa Hakko Kogyo Co., Ltd., priority 2000, dated 2003):
Where two headings read alike, the source gives them in different places.

Experiments:
[1] = tested on: human normal keratinocytes
[2] = tested on: human skin (forearm crook, females with roughening skin)
IL-1α = conditions: mean n = 2
[3] = tested on: human skin (forearm crook, females with roughening skin); conditions: 78 hours after the first treatment on day 1, 5 w/v % solution
[4] = tested on: human subjects (washing hands)

Row | Substance | suppressive effects on cytotoxicity, compared with the triethanolamine salt [1] | Relative water transpiration rates ([2]; next day after the 4-day treatment, Control = 100, mean n = 4) | water transpiration rate, in words ([2]; summary of Table 5) | IL-1α (IL-1α; 10 ppm test compound) | IL-1α (IL-1α; 30 ppm test compound) | IL-1α (IL-1α; 60 ppm test compound) | IL-1α (IL-1α; 100 ppm test compound) | IL-1α (IL-1α; 300 ppm test compound) | Desquamation [3] | Erythema [3] | Desquamation ([3]; listed as N-cocoyl-L-glutaminate) | Irritation (after use), average score ([4]; grades scored, 1 Very irritative, 5 Very mild, mean n = 5) | irritation on washing, in words ([4]; summary of Table 6)
1 | Sodium salt of N-cocoylglutamine [sodium salt of N-cocoyl-L-glutamine] | equivalent | – | – | – | – | – | – | – | – | – | – | – | –
2 | Triethanolamine N-Cocoyl-L-glutaminate [GMT] | – | 110% | lowest | 137.25 pg/well | 132.43 pg/well | 197.25 pg/well | 249.22 pg/well | 311.18 pg/well | A little | None | lowest | 0 | low irritation
